Amino acid sequences for entries named in this document (tags omitted).
UniProt O43614, whole entry: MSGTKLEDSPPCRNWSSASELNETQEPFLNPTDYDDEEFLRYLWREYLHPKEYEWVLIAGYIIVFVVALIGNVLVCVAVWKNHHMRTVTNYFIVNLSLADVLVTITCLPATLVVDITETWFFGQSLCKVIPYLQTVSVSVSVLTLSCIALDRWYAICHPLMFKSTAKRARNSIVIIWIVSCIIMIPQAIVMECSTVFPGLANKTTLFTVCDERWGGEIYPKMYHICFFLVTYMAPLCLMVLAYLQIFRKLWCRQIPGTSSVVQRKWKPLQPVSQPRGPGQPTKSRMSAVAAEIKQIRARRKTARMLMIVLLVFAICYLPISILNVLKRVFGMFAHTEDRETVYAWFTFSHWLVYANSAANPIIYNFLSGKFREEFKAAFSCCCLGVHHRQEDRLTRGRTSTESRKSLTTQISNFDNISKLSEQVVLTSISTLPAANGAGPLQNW

In patent US9975876B2, “2-pyridyloxy-3-ester-4-ether orexin receptor antagonists” (MERCK SHARP & DOHME CORP., priority 2013, dated 2018):

Experiments:
[1] = target: human orexin-2 receptor (Homo sapiens (Human), UniProt O43614); assay: FLIPR Ca2+ flux assay, orexin-2 receptor antagonism; type: cell-based; conditions: CHO cells; agonist 70 pM Ala-6,12 human orexin-A; read-out: hOX2R FLIPR IC50
Description: In a typical experiment the OX1 and OX2 receptor antagonistic activity of the compounds of the present invention was determined in accordance with the following experimental method. For intracellular calcium measurements, Chinese hamster ovary (CHO) cells expressing the rat orexin-1 receptor or the human orexin-2 receptor, are grown in Iscove's modified DMEM containing 2 mM L-glutamine, […], 1% hypoxanthine-thymidine supplement, 100 U/ml penicillin, 100 μg/ml streptomycin and 10% heat-inactivated fetal calf serum (FCS). The cells are seeded at 20,000 cells/well into Becton-Dickinson black 384-well clear bottom sterile plates coated with poly-D-lysine. All reagents were from GIBCO-Invitrogen Corp. The seeded plates are incubated overnight at 37° C. and 5% CO2. […] Within the Fluorescent Imaging Plate Reader (FLIPR, Molecular Devices), test compounds are added to the plate in a volume of 25 μl, incubated for 5 min and finally 25 μl of agonist is added. Fluorescence is measured for each well at 1 second intervals for 5 minutes and the height of each fluorescence peak is compared to the height of the fluorescence peak induced by 70 pM Ala-6,12 orexin-A with buffer in place of antagonist. […] The intrinsic orexin receptor antagonist activity of a compound which may be used in the present invention may be determined by these assays.

[2] = target: hOX1R (Homo sapiens, UniProt O43613); assay: FLIPR Ca2+ flux assay, orexin-1 receptor antagonism; type: cell-based; conditions: CHO cells; agonist 70 pM Ala-6,12 human orexin-A

Molecule `CCOC(=O)c1c(OC)ccnc1O[C@@H]1CC[C@@H](C)N(C(=O)c2ccccc2-n2ncnn2)C1` [Example 29, Ethyl 4-methoxy-2-{[(3R,6R)-6-methyl-1-{[2-(2H-tetrazol-2-yl)phenyl]carbonyl}piperidin-3-yl]oxy}pyridine-3-carboxylate] has an IC50 [1] of 52 nM and an IC50 [2] greater than 10000 nM.
